Ab-14 light chain CDR variants: yeast mating affinities

Source: Engelhart et al. 2022 (doi:10.1038/s41597-022-01779-4), MIT Lincoln Laboratory and A-Alpha Bio; data file from the FLAb repository.

The target is the same throughout: PDVDLGDISGINAS, from the HR2 region of SARS-CoV-2 spike.

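Phage display of a naive human antibody library on the peptide gave the parent. In library AAYL50, one, two or three CDR residues were substituted; doubles and triples were drawn at random. AlphaSeq pools MATa yeast showing the antibodies with MATalpha yeast showing the peptide. Mating (16 h, 30 °C) was followed by selection of diploids and sequencing of their barcodes. A regression on co-assayed BCL2-family reference pairs converts the normalised counts of each replicate to an apparent Kd. Mating was done three times.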

Each scFv is VH, a 15-residue (Gly4Ser)3 linker, VL, as in the parent Ab-14, and differs from it in the CDRs of the light chain only.
VH: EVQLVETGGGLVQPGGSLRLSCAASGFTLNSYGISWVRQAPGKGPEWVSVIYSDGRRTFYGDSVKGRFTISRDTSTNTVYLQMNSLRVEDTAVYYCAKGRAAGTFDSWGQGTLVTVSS
VL: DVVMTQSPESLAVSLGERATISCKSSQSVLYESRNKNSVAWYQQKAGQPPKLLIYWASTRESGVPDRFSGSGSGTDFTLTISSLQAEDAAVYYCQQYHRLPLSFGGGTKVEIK

Each variant is given by its three light chain CDRs, as the data file delimits them; those of the parent are KSSQSVLYESRNKNSVA, WASTRES, QQYHRLPLS. All variants listed here change R99 of the VL, counted from its first residue. The Kd shown is the geometric mean over detected replicates; a lower Kd is a better binder. "nd" means that the variant was in the library but no mating with the target was seen in any replicate; the authors take this as a sign of poor binding, and no number exists. In this assay the parent's reference entry averaged 4.4 nM; its copy inside this library read 48 nM. As a blank, each scFv also met three strains without target: over library AAYL50, 18% of these pairings were detected, typically at 15 µM and seldom below 970 nM.

With NSSQSVLYESRNKNSVA | WASTRES | QQMHKLPLS the result was nd (0 of 3 replicates). The variant KSSQSVLYESRNKNSVA | WASTRGS | QQYHKFPLS gave 21 nM (3 of 3 replicates). The variant KSSVSVLYESRNKNSVA | WASTRES | QYYHALPLS showed 740 nM (3 of 3 replicates). The variant KSSQSVLHESRNKNLVA | WASTRES | QQYHDLPLS gave 180 µM (1 of 3 replicates). The variant KSSQSVLQESRNKNSVA | WASTRES | WQYHFLPLS showed 23 µM (3 of 3 replicates). For KSSQSYLYESRNKNSVA | WASTREI | QQYHNLPLS, the assay gave 9.9 nM (3 of 3 replicates). For KSSQSVLYECRNKNSVA | WASTRES | QQYHMLPLS, the assay gave nd (0 of 3 replicates). With KSSQSVLYESRNKNSVA | VASTRES | QQWHQLPLS the result was 19 µM (1 of 3 replicates). For KSSQSVLYESRPKNSVA | WASTRES | QVYHYLPLS, the assay gave 38 nM (3 of 3 replicates).

For KSSQSVLYESRNKNSVA | WAKTRES | QNYHDLPLS, the assay gave 510 nM (3 of 3 replicates). For KSSQSVLYESRNKNSVA | WASTRES | QEYHSLPLS, the assay gave 3.8 nM (3 of 3 replicates). With CSSQSVWYESRNKNSVA | WASTRES | QQYHLLPLS the result was 2.6 µM (1 of 3 replicates). The variant KSDQSVLYESRNKNSVA | WASTRES | QLYHTLPLS showed 11 nM (3 of 3 replicates). The variant KSSGSVLYESRNKNSVA | WASTRYS | QQYHYLPLS showed nd (0 of 3 replicates). With KSSQSVLYESRNKNSVA | WASTRES | QQYHCLYLE the result was nd (0 of 3 replicates). With MSSQSVLYESRNKNSSA | WASTRES | QQYHWLPLS the result was 290 µM (1 of 3 replicates). For KSSQSVLYESRNKNMVA | WASTREQ | QQYHILPLS, the assay gave nd (0 of 3 replicates). For KSSQSVLYESRNKNSVA | WASTRES | QQYHPLPLS, the assay gave nd (0 of 3 replicates).

For KSSQSTLYESRNKNSVA | WASTRES | QQYHQLPLS, the assay gave 9.3 nM (3 of 3 replicates). With ASSQSVLYESRNKNSVA | WASTRTS | QQYHWLPLS the result was nd (0 of 3 replicates). With KSSQSVFYESYNKNSVA | WASTRES | QQYHNLPLS the result was 9.5 nM (3 of 3 replicates). The variant KSSQSVKYESRNKNSVA | WASTRNS | QQYHELPLS showed 390 nM (3 of 3 replicates). The variant KSSQSVLYESRNNNSVA | WASTRES | QQYHWLPTS showed 22 µM (3 of 3 replicates). For KSSQSVLYESRNKNSVY | WASTRES | QQYHALPLH, the assay gave nd (0 of 3 replicates). For KSSQSVLYESRNKNSVA | AASTTES | QQYHILPLS, the assay gave 9.8 nM (3 of 3 replicates). With KSTQSVLYESRNKNSVA | WASCRES | QQYHTLPLS the result was 110 nM (3 of 3 replicates). With KSSQSVLYESRNKNNDA | WASTRES | QQYHPLPLS the result was 1.6 mM (1 of 3 replicates).

For KSSQSVLYESRNKNSVA | WAKTRES | QIYHILPLS, the assay gave nd (0 of 3 replicates). The variant KISQSVLYESRNPNSVA | WASTRES | QQYHHLPLS showed 3.0 nM (3 of 3 replicates). With KSSQSVLYESRNKISVA | WASTKES | QQYHILPLS the result was 19 µM (1 of 3 replicates). With KSSQSVLYESANKNSVA | WVSTRES | QQYHGLPLS the result was 29 nM (3 of 3 replicates). For KSSQSVLQESVNKNSVA | WASTRES | QQYHTLPLS, the assay gave 3.6 nM (3 of 3 replicates). The variant KSRQSVLYESRNKNSVA | WASTRES | QQYHYLPLM showed 50 nM (3 of 3 replicates). The variant KSSQSVLYESRKKNSVA | WASTPES | QQYHMLPLS showed nd (0 of 3 replicates). With KSSQSVLYESRNKNSVA | WASFRES | QIYHELPLS the result was 180 nM (3 of 3 replicates). The variant KSSQSVLYESRNKNSVA | WASTRPS | QQYHFSPLS gave nd (0 of 3 replicates).

For KSSQSVNYESRNKNSVA | WASTRES | QQYHQLPLQ, the assay gave 19 nM (3 of 3 replicates). With KSSQSVLYESCNKLSVA | WASTRES | QQYHKLPLS the result was 1.3 µM (3 of 3 replicates). The variant KSSQSVLYESRNKNSVA | WLSTRET | QQYHFLPLS gave nd (0 of 3 replicates). The variant KSSQSVLPESRNKNSVA | WASTRES | FQYHQLPLS gave 22 nM (3 of 3 replicates). With KSSQSVLYESRNKNSLA | WASTRES | QQYHHLMLS the result was nd (0 of 3 replicates). The variant KSSQSVLYESRNENSVA | WASPRES | QQYHQLPLS showed 34 µM (1 of 3 replicates).

The first 7 variants above that were never detected:

For NSSQSVLYESRNKNSVA | WASTRES | QQMHKLPLS, the assay gave nd (0 of 3 replicates).
For KSSQSVLYECRNKNSVA | WASTRES | QQYHMLPLS, the assay gave nd (0 of 3 replicates).
For KSSGSVLYESRNKNSVA | WASTRYS | QQYHYLPLS, the assay gave nd (0 of 3 replicates).
For KSSQSVLYESRNKNSVA | WASTRES | QQYHCLYLE, the assay gave nd (0 of 3 replicates).
For KSSQSVLYESRNKNMVA | WASTREQ | QQYHILPLS, the assay gave nd (0 of 3 replicates).
For KSSQSVLYESRNKNSVA | WASTRES | QQYHPLPLS, the assay gave nd (0 of 3 replicates).
For ASSQSVLYESRNKNSVA | WASTRTS | QQYHWLPLS, the assay gave nd (0 of 3 replicates).